Apparent affinities of Ab-91 variants for a coronavirus HR2 peptide

Target peptide (SARS-CoV-2 spike, HR2 region): PDVDLGDISGINAS

Each scFv is VL, a (GGGGS)3 linker, VH, as in the parent Ab-91, and differs from it in the CDRs of the heavy chain only.
VL: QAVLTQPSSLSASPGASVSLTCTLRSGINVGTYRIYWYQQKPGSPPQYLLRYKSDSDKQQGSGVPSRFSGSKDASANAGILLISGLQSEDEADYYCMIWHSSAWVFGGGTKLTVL
VH: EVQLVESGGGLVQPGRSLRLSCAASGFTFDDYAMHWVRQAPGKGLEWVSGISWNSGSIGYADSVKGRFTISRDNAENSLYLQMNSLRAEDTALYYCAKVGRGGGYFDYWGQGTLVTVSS

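Phage display of a naive human antibody library on the peptide gave the parent. Library AAYL51 holds single substitutions and randomly drawn double and triple substitutions in the CDRs. In AlphaSeq, yeast of one mating type display the scFv and yeast of the other type display the target. Binding brings cells together so that they mate, and sequencing counts the barcode pairs among the diploids. Each replicate has its own calibration line, from reference interactions of the BCL2 family. Each pool was mated in three replicate cultures.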

Variants are written as CDR1, CDR2 and CDR3 of the heavy chain (limits as in the source). Parent: GFTFDDYAMH, GISWNSGSIGYADSVK, VGRGGGYFDY. The read-out is the apparent dissociation constant on a log10 scale (nM): the lower, the stronger. The mean shown is taken over the replicates in which the pair was detected. "nd" marks a missing value. The strain was present, yet no cells mated with the target were sequenced in any replicate, which points to weak or no binding. Three control strains display no target. For library AAYL51, 21% of the pairings with them gave a signal, with a median of 4.54 and one signal in twenty below 3.26, so weak values seen in few replicates may be background. The control count says in how many pairings with the empty strains this scFv gave a signal.

{"CDR-H1": "GFTFDDYAMS", "CDR-H2": "GISWNQGSIGYADSVK", "CDR-H3": "VGRGGMYFDY", "mean, log10 nM": "5.29", "detected": "1 of 3", "control signals": "6 of 9"}
{"CDR-H1": "RFTFDDYAMH", "CDR-H2": "GISWNSGSIGYPDSVK", "CDR-H3": "VGRYGGYFDY", "mean, log10 nM": "6.15", "detected": "3 of 3", "control signals": "5 of 9"}
{"CDR-H1": "GFTFDDYAWH", "CDR-H2": "GISWNSGSIGYADSVK", "CDR-H3": "VGRGGTKFDY", "mean, log10 nM": "5.02", "detected": "3 of 3", "control signals": "3 of 9"}
{"CDR-H1": "GFTFDDYAMH", "CDR-H2": "GISWQHGSIGYADSVK", "CDR-H3": "VERGGGYFDY", "mean, log10 nM": "5.70", "detected": "1 of 3", "control signals": "3 of 9"}
{"CDR-H1": "GFTFDDEGMH", "CDR-H2": "GISWNSGKIGYADSVK", "CDR-H3": "VGRGGGYFDY", "mean, log10 nM": "5.08", "detected": "1 of 3", "control signals": "3 of 9"}
{"CDR-H1": "GFTFDDYAMQ", "CDR-H2": "GISWNSGSIGYADSVH", "CDR-H3": "VGNGGGYFDY", "mean, log10 nM": "2.27", "detected": "3 of 3", "control signals": "0 of 9"}
{"CDR-H1": "GFTFDDYMMH", "CDR-H2": "GISWRSGSPGYADSVK", "CDR-H3": "VGRGGGYFDY", "mean, log10 nM": "nd", "detected": "0 of 3", "control signals": "2 of 9"}
{"CDR-H1": "SFTFDDYHMH", "CDR-H2": "GISNNSGSIGYADSVK", "CDR-H3": "VGRGGGYFDY", "mean, log10 nM": "2.70", "detected": "1 of 3", "control signals": "1 of 9"}
{"CDR-H1": "GFTFDDQAMH", "CDR-H2": "GISWNSGSIGYADSVK", "CDR-H3": "VGRPGVYFDY", "mean, log10 nM": "4.56", "detected": "2 of 3", "control signals": "4 of 9"}
{"CDR-H1": "GFTFDDYAMH", "CDR-H2": "GISWNWGSIGYADTVK", "CDR-H3": "VGRGGKYFDY", "mean, log10 nM": "nd", "detected": "0 of 3", "control signals": "0 of 9"}
{"CDR-H1": "GFTFDDYDMH", "CDR-H2": "GISWNSGSIGYMDSVK", "CDR-H3": "VGRGGGLFDY", "mean, log10 nM": "nd", "detected": "0 of 3", "control signals": "0 of 9"}
{"CDR-H1": "AFDFDDYAMH", "CDR-H2": "GISSNSGSIGYADSVK", "CDR-H3": "VGRGGGYFDY", "mean, log10 nM": "2.93", "detected": "3 of 3", "control signals": "0 of 9"}
{"CDR-H1": "GFTFDDYAMC", "CDR-H2": "CISWNSGSIGYADSVP", "CDR-H3": "VGRGGGYFDY", "mean, log10 nM": "4.54", "detected": "2 of 3", "control signals": "1 of 9"}
{"CDR-H1": "GFTFDDYAMH", "CDR-H2": "GISWNSGSIGYADSHK", "CDR-H3": "VGRGGGQFDV", "mean, log10 nM": "5.38", "detected": "3 of 3", "control signals": "7 of 9"}
{"CDR-H1": "GFTFDDYAMH", "CDR-H2": "GISWNSGSIGYADSVK", "CDR-H3": "VGRHEGYFLY", "mean, log10 nM": "nd", "detected": "0 of 3", "control signals": "0 of 9"}
{"CDR-H1": "GFTFDDYAMH", "CDR-H2": "GISWNSGSTGLADSVK", "CDR-H3": "VGRGRGYFDY", "mean, log10 nM": "nd", "detected": "0 of 3", "control signals": "2 of 9"}
{"CDR-H1": "GFTFNDYAMH", "CDR-H2": "GISWNSGSIGYADSVK", "CDR-H3": "VGRGGGYFVY", "mean, log10 nM": "nd", "detected": "0 of 3", "control signals": "2 of 9"}
{"CDR-H1": "GFTNDDYAMH", "CDR-H2": "GISWNSGSIYYADIVK", "CDR-H3": "VGRGGGYFDY", "mean, log10 nM": "nd", "detected": "0 of 3", "control signals": "2 of 9"}
{"CDR-H1": "GFTFDDYARH", "CDR-H2": "GISWVSGSIGYADSVK", "CDR-H3": "VGRGGRYFDY", "mean, log10 nM": "nd", "detected": "0 of 3", "control signals": "3 of 9"}
{"CDR-H1": "GFTWDDYAMH", "CDR-H2": "GISWNSGSIGYAVSVK", "CDR-H3": "VGRGGGMFDY", "mean, log10 nM": "5.98", "detected": "1 of 3", "control signals": "2 of 9"}
{"CDR-H1": "GFTFDDYAMA", "CDR-H2": "GISWNSLSIGYADSVK", "CDR-H3": "VGRGSGYFDY", "mean, log10 nM": "nd", "detected": "0 of 3", "control signals": "2 of 9"}
{"CDR-H1": "GFTTDDYAMH", "CDR-H2": "GISWNSGSIGYADWVQ", "CDR-H3": "VGRGGGYFDY", "mean, log10 nM": "nd", "detected": "0 of 3", "control signals": "0 of 9"}
{"CDR-H1": "LFTFDDYAMH", "CDR-H2": "GISWNHGSIQYADSVK", "CDR-H3": "VGRGGGYFDY", "mean, log10 nM": "5.96", "detected": "1 of 3", "control signals": "2 of 9"}
{"CDR-H1": "GFTFDDYAMH", "CDR-H2": "GISWNSGSIGYADSVK", "CDR-H3": "VGKGGHYFDY", "mean, log10 nM": "3.90", "detected": "3 of 3", "control signals": "7 of 9"}
{"CDR-H1": "QFTFDDYAMH", "CDR-H2": "GISWNSGSIGYADVVK", "CDR-H3": "VCRGGGYFDY", "mean, log10 nM": "2.85", "detected": "1 of 3", "control signals": "2 of 9"}
{"CDR-H1": "GFTFDDYAMH", "CDR-H2": "GISWNSCSIGYADSVK", "CDR-H3": "VGRTGGYFDY", "mean, log10 nM": "4.59", "detected": "2 of 3", "control signals": "5 of 9"}
{"CDR-H1": "GFTFLDYAMH", "CDR-H2": "GISWNSGWIGYADSVK", "CDR-H3": "VGRGPGYFDY", "mean, log10 nM": "5.27", "detected": "3 of 3", "control signals": "4 of 9"}
{"CDR-H1": "GFTFDCYAMH", "CDR-H2": "GISWNSGKIGYADSVK", "CDR-H3": "VGRGGGWFDY", "mean, log10 nM": "4.95", "detected": "2 of 3", "control signals": "1 of 9"}
{"CDR-H1": "VFTFDDYAHH", "CDR-H2": "GISWESGSIGYADSVK", "CDR-H3": "VGRGGGYFDY", "mean, log10 nM": "5.39", "detected": "1 of 3", "control signals": "2 of 9"}
{"CDR-H1": "GVTEDDYAMH", "CDR-H2": "GISWNSGSIGYADSVK", "CDR-H3": "VGRGFGYFDY", "mean, log10 nM": "3.06", "detected": "1 of 3", "control signals": "0 of 9"}
{"CDR-H1": "GFTFDDYDDH", "CDR-H2": "GISWNSGSIGYADSVK", "CDR-H3": "DGRGGGYFDY", "mean, log10 nM": "4.83", "detected": "1 of 3", "control signals": "4 of 9"}

The first 5 variants above that were never detected:

{"CDR-H1": "GFTFDDYMMH", "CDR-H2": "GISWRSGSPGYADSVK", "CDR-H3": "VGRGGGYFDY", "mean, log10 nM": "nd", "detected": "0 of 3", "control signals": "2 of 9"}
{"CDR-H1": "GFTFDDYAMH", "CDR-H2": "GISWNWGSIGYADTVK", "CDR-H3": "VGRGGKYFDY", "mean, log10 nM": "nd", "detected": "0 of 3", "control signals": "0 of 9"}
{"CDR-H1": "GFTFDDYDMH", "CDR-H2": "GISWNSGSIGYMDSVK", "CDR-H3": "VGRGGGLFDY", "mean, log10 nM": "nd", "detected": "0 of 3", "control signals": "0 of 9"}
{"CDR-H1": "GFTFDDYAMH", "CDR-H2": "GISWNSGSIGYADSVK", "CDR-H3": "VGRHEGYFLY", "mean, log10 nM": "nd", "detected": "0 of 3", "control signals": "0 of 9"}
{"CDR-H1": "GFTFDDYAMH", "CDR-H2": "GISWNSGSTGLADSVK", "CDR-H3": "VGRGRGYFDY", "mean, log10 nM": "nd", "detected": "0 of 3", "control signals": "2 of 9"}

Values reported by Engelhart et al. 2022, doi:10.1038/s41597-022-01779-4 (FLAb copy).